The source of these data is PubChem BioAssay AID1656 (Sanford-Burnham Center for Chemical Genomics, 2009).

This is a selection; strong and weak results do not stand in their true shares. The source made the active and inactive calls.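 The calls were made as follows: active = lipid droplet intensity inhibited by at least 50%, with more than 500 cells counted; inconclusive = wells with under 300 cells, treated as cytotoxic; inactive = the rest.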

This assay in a line: oleate-induced lipid droplet accumulation in AML12 cells – imaging, high-throughput imaging, BODIPY stain, primary screen (AID 1656). As to conditions: AML12 mouse hepatocytes, oleate lipid droplets, at 6.5 µM, hits give high values.
For the compound `Cc1ccc(C)c(NP(C)(=O)Oc2ccccc2)c1` (stereo unspecified), the inhibition is inactive: -15.5%.

Turning to `CCCOP(=S)(Nc1nc(N)cc(=O)[nH]1)OCCC`, the inhibition is inactive: -2.9%.

For `CCOP(=O)(Nc1cccc2ccccc12)OCC`, the inhibition is inactive: -17.2%.

Consider `O=C(OC1CN2CCC1CC2)c1ccc(Cl)cc1` (stereo unspecified), for which the inhibition was inactive: 11.2%.

Take `O=[As](O)(O)c1cccnc1`: the inhibition was inactive: -2.5%.

For `COc1cc(C(=O)NCC2(N3CCOCC3)CCCCC2)cc(Cl)c1OC(C)C`, the inhibition is inactive: -11.2%.

For `COc1ccccc1OP(C)(=O)Nc1cccc(Br)c1` (stereo unspecified), the inhibition is inactive: -16%.

Regarding `CS(=O)(=O)c1ccc(Cl)c(NC(=O)COC(=O)C(O)(c2ccccc2)c2ccccc2)c1`, the inhibition is inactive: -7.1%.

On to `Cc1cccc(OCC(=O)OC2CN3CCC2CC3)c1` (stereo unspecified), for which the inhibition was inactive: 6.2%.

In the case of `O=[As](O)(c1cccc(O)c1)c1cccc(O)c1`, the inhibition is inactive: 5.9%.

As to `Cc1cc(C)cc(OP(C)(=O)Nc2ccc(C)cc2C)c1` (stereo unspecified), the inhibition was inactive: -5.4%.

For `CCOC(=O)c1ccc(NP(C)(=O)Oc2cc(C)cc(C)c2)cc1` (stereo unspecified), the inhibition was inactive: -12.5%.

With `CC(C)/C=N\N=C(\N)N[N+](=O)[O-]`, the inhibition is inactive: 17.8%.

For `CN(C(=O)Cc1ccc(Cl)c(Cl)c1)[C@@H]1CCCC[C@H]1N1CCCC1`, the inhibition was inactive: -2.1%.

Take `O=[As](O)(c1ccccc1Br)c1ccccc1Br`: the inhibition was inactive: -5%.

Consider `O=P1(Nc2ccccn2)COc2ccccc2OC1`, for which the inhibition is inactive: -2.9%.

For the compound `CCC1=CC2Cc3nc4ccc(Cl)cc4c(N)c3C(C1)C2` (stereo unspecified), the inhibition was inactive: -20.1%.

On to `O=[N+]([O-])c1cc([N+](=O)[O-])c(-n2nnc3ccccc32)c([N+](=O)[O-])c1`, for which the inhibition was inactive: 3%.

As to `CCOP(=O)(NC(=NC(C)c1ccccc1)NC(C)c1ccccc1)OCC` (stereo unspecified), the inhibition is inactive: -4.4%.

Turning to `CCOP(=O)(Nc1ccc(C)cn1)OCC`, the inhibition was inactive: -2.7%.

On to `CC(C)(C)C(=O)NC(Sc1ncccn1)C(Cl)(Cl)Cl` (stereo unspecified), for which the inhibition was inactive: -11%.

Consider `CN1CCCCC1COC(=O)C1(O)c2ccccc2CCc2ccccc21` (stereo unspecified), for which the inhibition was inactive: -13.1%.

As to `O=P1(Nc2ncccn2)COc2ccccc2OC1`, the inhibition was inactive: 4.8%.

Consider `CCCOc1ccc(NP(C)(=O)Oc2ccc(Cl)cc2)cc1` (stereo unspecified), for which the inhibition was inactive: -25.5%.

With `CP(=O)(Nc1ccc(SC(F)(F)F)cc1)Oc1ccccc1` (stereo unspecified), the inhibition was inactive: -22.5%.

For `Nc1cccc([As](=O)(O)c2ccccc2)c1`, the inhibition was inactive: 8.3%.

`Cc1ccc(OCC(=O)OC2CN3CCC2CC3)cc1` (stereo unspecified): the inhibition is inactive: 14.5%.

With `O=[As](O)(c1cccs1)c1cccs1`, the inhibition was inactive: 28.4%.

Take `O=P1(Nc2ccc(Br)cn2)COc2ccccc2OC1`: the inhibition was inactive: 2.2%.

For `Cc1nn(-c2ccccc2)c2c1P(=O)(N1CCOCC1)N(C)C(c1ccccc1)=N2` (stereo unspecified), the inhibition was inactive: -0.2%.

With `CC1CCC(C(C)C)C(OP(=O)(Nc2ccccn2)c2ccccc2)C1` (stereo unspecified), the inhibition is inactive: 4.3%.

For `COc1cc(C2NCCC3(OCCO3)C2(C)C)cc(OC)c1OC.O=[N+]([O-])c1cc([N+](=O)[O-])c(O)c([N+](=O)[O-])c1` (stereo unspecified), the inhibition was inactive: -4.5%.

Regarding `CN(C)C1(CNC(=O)c2ccc(S(C)(=O)=O)cc2)CCCCC1`, the inhibition is inactive: -1.6%.

Turning to `O=[N+]([O-])c1cc([N+](=O)[O-])c(Nc2nnnn2CCO)c([N+](=O)[O-])c1`, the inhibition is inactive: 8.4%.

`CCOC(=O)C(CC)C1=NC(C)(C)Cc2ccccc21.O=[N+]([O-])c1cc([N+](=O)[O-])c(O)c([N+](=O)[O-])c1` (stereo unspecified): the inhibition is inactive: -33.1%.

Regarding `O=C(/C=C/c1ccccc1)OC1CN2CCC1CC2` (stereo unspecified), the inhibition is inactive: 22.1%.

In general, inhibition refers to the change of the read-out against control, counted positive when it falls.
